# Measured values from PubChem BioAssay AID1777 (Sanford-Burnham Center for Chemical Genomics, 2009).
# Protein sequences, listed by entry. Tags and fused reporters are not part of them. Lines headed by an entry give the natural chain unless they say otherwise; changes in a name come on top.
# UniProt P41145: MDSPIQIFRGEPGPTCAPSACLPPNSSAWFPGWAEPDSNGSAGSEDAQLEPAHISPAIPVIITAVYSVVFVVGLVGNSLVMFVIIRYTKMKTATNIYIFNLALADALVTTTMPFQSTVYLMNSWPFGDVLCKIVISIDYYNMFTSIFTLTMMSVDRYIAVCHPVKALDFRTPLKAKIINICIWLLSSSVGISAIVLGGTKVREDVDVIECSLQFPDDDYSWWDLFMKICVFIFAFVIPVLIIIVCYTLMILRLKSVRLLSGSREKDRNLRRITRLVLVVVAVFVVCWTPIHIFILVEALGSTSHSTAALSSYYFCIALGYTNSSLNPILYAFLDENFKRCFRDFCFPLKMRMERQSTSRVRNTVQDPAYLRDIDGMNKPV
# The list shows a part of the results. Results with a measured potency or affinity are listed apart. Calls of active or inactive are those of the source. Cut-off read from the data, not from the text of the source: active = activation above about 50% (passing the limit was not always enough); inactive = the rest.
# Target: Kappa-type opioid receptor (Homo sapiens) (UniProt P41145)
# Experiment: kappa opioid receptor activators – cell-based, luminescence, uHTS, primary screen (AID 1777)
# Details: KOR beta-arrestin recruitment, at 10 µM, active compounds read high
row,Structure (SMILES),activation
1,CCc1cccc(C)c1N(C(=O)Cn1c(COC)nc2ccccc21)C(C)COC (stereo unspecified),inactive: -8.2%
2,O=[N+]([O-])c1ccc2c(c1)nc1n2CCN(c2ccccc2)C1,inactive: -0.1%
3,O=C(c1ccccc1)N1CCn2c(nc3ccccc32)C1,inactive: -0.3%
4,CC(NC(=O)Cn1cnc2c1c(=O)n(C)c(=O)n2C)c1ccccc1 (stereo unspecified),inactive: -1.2%
5,O=C(Cn1cnc2ccccc21)Nc1ccc(SC(F)F)cc1,inactive: -0.5%
6,O=C(C1CCCN(S(=O)(=O)c2cccnc2)C1)N1CCn2c1nc1ccccc12 (stereo unspecified),inactive: 1.2%
7,CCC(C(=O)NC1CCCCC1)n1c(SCc2cccc(C)c2)nc2ccncc21 (stereo unspecified),inactive: -0.6%
8,CCOCN(C(=O)Cn1cnc2ccccc21)c1c(C)cccc1CC,inactive: -3.4%
9,Cc1nc2cc(C(F)(F)F)ccc2n1CCNc1nc(-c2ccc(F)cc2)cs1,inactive: -1%
10,c1ccc(Cn2c(CNc3nc4ccccc4n3CCN3CCOCC3)nc3ccccc32)cc1,inactive: 3.6%
11,O=C(Nc1ccncc1[N+](=O)[O-])c1ccc([N+](=O)[O-])cc1[N+](=O)[O-],inactive: -3.4%
12,COc1ccc(/C=N/NC(=O)Cn2cnc3c2c(=O)n(C)c(=O)n3C)c(OC)c1OC,inactive: 2.6%
13,O=C(Cn1cnc2ccccc21)Nc1ccc(F)c(F)c1,inactive: -0.2%
14,COC(=O)c1cccc(NC(=O)Cn2cnc3c2c(=O)n(C)c(=O)n3C)c1,inactive: -5.3%
15,O=C(COc1ccccc1)OC1CN2CCC1CC2 (stereo unspecified),inactive: -1.5%
16,Cn1c(=O)c2c(ncn2CC(=O)N2CCc3ccccc3C2)n(C)c1=O,inactive: -0.5%
17,CCC[n+]1cn(/C(C(=S)Nc2cccc(Cl)c2C)=C(/[O-])c2ccc(OC)c(OC)c2)c2ccccc21,inactive: -3.2%
18,COc1ccc(OCC(=O)N2c3ccc(C)cc3C3CN(C)CCC32)cc1 (stereo unspecified),inactive: 0.9%
19,O=C(CCCCCNC(=O)N1CCn2c1nc1ccccc12)NCCc1ccccc1,inactive: 5%
20,Cc1ccc2c(c1)[C@@H]1CN(C)CC[C@@H]1N2S(=O)(=O)c1ccc([N+](=O)[O-])cc1,inactive: 0.1%
21,NNC(=O)Cn1c(-c2ccccn2)nc2ccccc21,inactive: -3.9%
22,COc1cc(NC(=O)[C@H](C)NC(=O)N2CCn3c2nc2ccccc23)cc(OC)c1,inactive: 2%
23,Cc1ccc(NC(=O)Cn2c(=S)[nH]c3ccccc32)cc1,inactive: 3.1%

row,Structure (SMILES),activation
1,Cn1c(=O)c2c(ncn2CC(=O)NCc2cccnc2)n(C)c1=O,inactive: -1.3%
2,Cn1c(=O)[nH]c(=O)c2c1ncn2CCN1CCCCC1,inactive: -2.9%
3,CCOC(=O)Nc1cccc([As](=O)(O)O)c1,inactive: 2.7%
4,Cn1c(=O)n(Cc2ccccc2)c(=O)c2c1nc1n2CCN1Cc1ccco1,inactive: -2.5%
5,Cn1c(=O)c2c(ncn2CC(=O)N/N=C/c2ccc(Br)s2)n(C)c1=O,inactive: -1.3%
6,C/C(=N\NC(=O)Cn1c(C)nc2ccccc21)c1cccs1,inactive: 6.3%
7,O=C(Cn1c(CCCO)nc2ccccc21)Nc1ccccc1-c1ccccc1,inactive: 6.5%
8,CCCNC(=O)Cn1c(=O)n(C)c2ccccc21,inactive: 3.3%
9,CC1CN(Cc2nc3c(c(=O)n(C)c(=O)n3C)n2CCN2CCOCC2)CC(C)O1 (stereo unspecified),inactive: -2.3%
10,CCNC(=S)N1CCn2c(nc3ccccc32)C1,inactive: -1.7%
11,Cc1cc(SC(NC=O)C(Cl)(Cl)Cl)ncn1 (stereo unspecified),inactive: 2.8%
12,O=P(Nc1ccccn1)(c1cccc2ccccc12)c1cccc2ccccc12,inactive: -4.7%
13,CCc1nc2ccccc2n1CC(=O)N1CCN(S(=O)(=O)c2cccc(C(F)(F)F)c2)CC1,inactive: 0.3%
14,COc1ccccc1C(=O)OCCNC(=O)Cn1cnc2c1c(=O)n(C)c(=O)n2C,inactive: -0.1%
15,O=[N+]([O-])c1ccc(Nc2ccc(Oc3ccc([N+](=O)[O-])cc3[N+](=O)[O-])cc2)c([N+](=O)[O-])c1,inactive: 0.8%
16,O=C(Cn1c(CC(=O)N2CCOCC2)nc2ccccc21)Nc1ccc2c(c1)OC(F)(F)O2,inactive: -5.2%
17,CCS(=O)(=O)c1nc2ccccc2n1CC(=O)N1CCOCC1,inactive: -4.8%
18,CCC(C)c1ccc2oc(-c3ccc(NC(=O)Cn4cnc5c(=O)n(C)c(=O)n(C)c54)cc3)nc2c1 (stereo unspecified),inactive: -3.5%
19,COCCN1CCn2c(nc3cc(NC(=O)c4ccc(OC)cc4)ccc32)C1,inactive: -3.2%
20,CCC(=O)Nc1nnc(/C=C/c2ccccc2)s1,inactive: 2.4%
21,COc1ccc(S(=O)(=O)N2CCn3c2nc2ccccc23)cc1,inactive: 0.3%
22,Cc1ccc2c(c1)C1CN(C)CCC1N2C(=O)COc1ccccc1F (stereo unspecified),inactive: 1%
23,Nc1ncnc2c1ncn2CCNCCc1ccccc1,inactive: -2.5%

row,Structure (SMILES),activation
1,O=C(Cn1c(C(F)(F)F)nc2ccccc21)NCCCN1CCOCC1,inactive: -5%
2,CCCCC(=O)Nc1nnc(/C=C/c2ccc(OC)cc2)s1,inactive: -1.7%
3,CC(C)C[C@H](NC(=O)N1CCn2c1nc1ccccc12)C(=O)NCCc1ccccc1,inactive: -2.1%
4,Cc1cc(C)cc(N(CC(=O)N2CCn3c2nc2ccccc23)S(=O)(=O)c2c(C)noc2C)c1,inactive: 0.9%
5,O=C(C1CCN(S(=O)(=O)c2cccc3cccnc23)CC1)N1CCn2c1nc1ccccc12,inactive: -33.4%
6,Cc1ccc(N(CC(=O)N2CCn3c2nc2ccccc23)S(=O)(=O)c2c(C)n[nH]c2C)cc1,inactive: -3.3%
7,CC1c2nc3ccccc3n2C(CC(=O)NCc2ccccn2)C(=O)N1Cc1ccccc1 (stereo unspecified),inactive: -2.8%
8,CC(=O)Nc1ccc(C(=O)CSc2nc3ccccc3n2CC(=O)N2CCCC2)cc1,inactive: 1.4%
9,Cc1ccc2c(c1)C1CN(C)CCC1N2C(=O)c1cccs1 (stereo unspecified),inactive: 0.9%
10,Nc1ncnc2c1ncn2CCN1CCOCC1,inactive: 10.2%
11,Cc1ccc2c(c1)C1CN(C)CCC1N2C(=O)COc1ccc(N(C)C(=O)C(C)(C)C)cc1 (stereo unspecified),inactive: 0.8%
12,CCN(CC)CCNC(=S)N1CCn2c(nc3ccccc32)C1,inactive: -1.4%
13,CC(C)[C@H](NC(=O)N1CCn2c1nc1ccccc12)C(=O)NC1CCCCC1,inactive: 0.9%
14,COc1ccc(/C=N/c2nc3ccccc3n2CCN2CCCCC2)cc1OC,inactive: -2.6%
15,Cc1cc(SC(NC(=O)c2ccccc2)C(Cl)(Cl)Cl)nc(C(C)C)n1 (stereo unspecified),inactive: -2.7%
16,CC(=O)Nc1ccc(NC(=O)Cn2c(CC(=O)N3CCCC3)nc3ccccc32)cc1,inactive: -6%
17,CC(C)[C@H](NC(=O)N1CCn2c1nc1ccccc12)C(=O)N1CCCCC1,inactive: 4.7%
18,Cc1ccc(-c2csc(N3CCC[C@@H]3C(=O)NCCn3c(C(F)(F)F)nc4ccccc43)n2)cc1,inactive: 3.3%
19,CCCNC(=O)CC1C(=O)N(Cc2ccccc2)C(C)c2nc3ccccc3n21 (stereo unspecified),inactive: 2.9%
20,Cc1nc2ccccc2n1CC(=O)NCCN1CCCC1,inactive: -0.3%
21,CC1(C)c2ccccc2N2CCC(=O)NC21/C=C/c1ccco1 (stereo unspecified),inactive: 0.2%
22,Cc1ccsc1/C=N/NC(=O)Cn1cnc2ccccc21,inactive: 10.6%
23,ClCCSc1nnc(-c2cccnc2)o1,inactive: -5.2%

row,Structure (SMILES),activation
1,Cn1c(=O)c2c(ncn2CC(=O)N2CCN(c3cccc(Cl)c3)CC2)n(C)c1=O,inactive: -1.8%
2,CC(C)NC(=O)Cn1c(SCC(=O)c2ccc(F)cc2)nc2ccccc21,inactive: 3.4%
3,Cc1ccc2c(c1)C1CN(C)CCC1N2C(=O)CCCN1C(=O)c2cccc3cccc(c23)C1=O (stereo unspecified),inactive: -1.3%
4,N=c1n(CCN2CCCCC2)c2ccccc2n1CC(=O)c1cccc([N+](=O)[O-])c1,inactive: 1.5%
5,COc1ccccc1NC(=O)N1CCn2c(nc3ccccc32)C1,inactive: -4%
6,CCC(=O)Nc1nc2ccccc2n1CCN(CC)CC,inactive: -1.9%
7,CC(C)c1ccc(OP(=O)(Nc2ccccn2)Oc2ccccc2F)cc1 (stereo unspecified),inactive: 1.5%
8,c1csc(CNc2nc3ccccc3n2CCN2CCOCC2)c1,inactive: 6.8%
9,CCC(C(=O)NC1CCCCC1)n1c(SCc2ccccc2F)nc2ccncc21 (stereo unspecified),inactive: 2.7%
10,Oc1ccccc1CNc1nc2ccccc2n1CCN1CCCCC1,inactive: 5.1%
11,Cc1nc2ccccc2n1C1CCN(Cc2nnnn2CCc2ccccc2)CC1,inactive: -3.4%
12,COc1ccc(CCNC(=O)[C@@H](NC(=O)N2CCn3c2nc2ccccc23)C(C)C)cc1OC,inactive: 2.6%
13,N=c1n(CCN2CCCCC2)c2ccccc2n1CC(=O)c1ccc(Cl)c(Cl)c1,inactive: 3.5%
14,CC1c2nc3ccccc3n2C(CC(=O)NCCCN2CCOCC2)C(=O)N1Cc1ccccc1 (stereo unspecified),inactive: -1.6%
15,O=[N+]([O-])c1cc([N+](=O)[O-])c(-c2ccn[nH]2)s1,inactive: -0.5%
16,O=C(Cn1c(-c2ccccn2)nc2ccccc21)NCCN1CCOCC1,inactive: -2.4%
17,O=C(Cn1c2[n+](c3ccc(C(F)(F)F)cc31)CCCCC2)Nc1c(F)cccc1F,inactive: -1.5%
18,Cn1c(=O)c2c(ncn2CC(=O)Nc2nc(-c3ccccc3Cl)cs2)n(C)c1=O,inactive: 6.1%
19,C=C(C)Cn1c(=O)c2c(nc3n2CCN3c2cccc(Cl)c2C)n(C)c1=O,inactive: 14.2%
20,CCN(CC)C(=S)SC(NC=O)C(Cl)(Cl)Cl (stereo unspecified),inactive: -3%
21,O=C(Nc1nc2ccccc2n1CCN1CCOCC1)c1cn(-c2ccccc2)nc1-c1ccccc1,inactive: 2%
22,CC(C)NC(=O)NP(=O)(Oc1ccccc1)Oc1ccccc1,inactive: -0.1%
